# AlphaSeq binding of Ab-14 light chain variants to a spike HR2 peptide

Antigen: PDVDLGDISGINAS, a 14-residue peptide of the SARS-CoV-2 spike HR2 region.

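The starting antibody came from a phage panning campaign against this peptide. These sequences belong to a second round, designed from the earlier measurements on random variants of the parent. Several design methods are mixed in this list. In AlphaSeq, yeast of one mating type display the scFv and yeast of the other type display the target. After mating in shaken culture at 30 °C for 16 h, diploids were selected and their barcode pairs sequenced. Scores were corrected for input abundance and mapped to Kd with protein pairs of known affinity run in the same pool. The assay was run in six technical replicates.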

Each scFv is VH, three GGGGS repeats, VL, as in the parent Ab-14, and differs from it in the CDRs of the light chain only.
VH: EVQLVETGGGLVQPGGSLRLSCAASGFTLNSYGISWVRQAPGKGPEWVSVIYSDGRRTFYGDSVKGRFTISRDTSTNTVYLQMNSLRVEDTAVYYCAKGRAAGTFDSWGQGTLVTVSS
VL: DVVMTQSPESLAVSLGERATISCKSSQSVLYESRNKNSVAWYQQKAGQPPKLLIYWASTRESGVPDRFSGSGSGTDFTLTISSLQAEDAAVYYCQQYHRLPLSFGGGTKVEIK

Each variant is given by its three light chain CDRs, as the data file delimits them; those of the parent are KSSQSVLYESRNKNSVA, WASTRES, QQYHRLPLS.
Values are log10 of the apparent Kd in nM; lower means stronger binding.
An entry "n.d." has no value in the source: the pair was not observed among the diploids in that replicate. This suggests poor binding but is not conclusive.

CDR-L1 | CDR-L2 | CDR-L3 | replicates, log10 nM | control signals
KLSQSVLYESRNKNSVA | EAQTRES | QQYHRLPLS | -0.27 / -0.31 / -0.48 / -0.59 / -0.46 / -0.32 | 0/18
TISQMSTLFSQSINNVA | EVSTREE | QQYDRLPLG | 1.25 / 0.67 / 0.63 / 0.90 / 1.25 / 1.28 | 0/18
ALSQVMDMTSRNVNSVA | DLTTREN | QQYHRLPLS | 0.62 / 0.32 / 0.58 / 0.24 / 0.37 / 0.77 | 3/18 (3.59)
KQSQSVLMESRNWNSVA | DASTRES | QQYHRLPLS | 0.41 / 0.27 / 0.37 / 0.26 / 0.40 / 0.58 | 0/18
MIYGTQRELGLAANSIA | DNVTRYS | QQYERLPLS | 2.79 / n.d. / n.d. / 2.88 / 3.73 / n.d. | 4/18 (3.35)
MLSQLFMYGSRNYNSVA | QASTRES | QQYDRLPLI | 1.34 / 1.72 / 1.48 / 2.86 / 1.33 / 1.29 | 1/18 (1.72)
TISQSTYWESFNKNSVA | QTSTREE | QDYDRLPLS | n.d. / n.d. / n.d. / n.d. / n.d. / n.d. | 1/18 (1.74)
KLEQSDNYESRNKNSVA | NASTRES | QQYHRLPLS | -0.32 / -0.21 / -0.63 / -0.50 / -0.30 / -0.19 | 2/18 (2.00)
KSSVSVLYESRNKNSIA | NASTRES | QQYHRLPLS | n.d. / n.d. / n.d. / 1.76 / n.d. / n.d. | 0/18
MISQLYNMGQFAINSVA | QASIRNE | QQYDRLPLV | 0.96 / 1.58 / 1.40 / 0.83 / 1.51 / 1.41 | 1/18 (2.33)
KSSISYLYESRNKNSVA | EASTREK | QQYHRLPLM | 0.48 / 0.36 / 0.28 / 0.37 / 0.45 / 0.67 | 3/18 (2.96)
KFAGGLDYNNAHKSAIA | HADIRNI | QQYFRLPLD | 1.07 / 0.93 / 1.53 / 0.89 / 2.00 / 2.52 | 0/18
NVGQSMDGVSRNKNSVA | HQSTRED | QHYHRLPLS | 0.51 / 0.10 / 0.08 / 0.35 / 0.13 / 0.69 | 1/18 (2.70)
KSSQSMLYESGNKNSVA | HASTRES | QQYHRLPLS | 0.20 / -0.04 / 0.18 / 0.09 / -0.15 / 0.04 | 1/18 (1.94)
KSSQSVLYESRNKNSVA | FASTRES | QQYHRLPLS | 1.69 / n.d. / n.d. / 2.51 / 2.64 / 2.30 | 0/18
NVGQLMDGETRNKNSVA | HQSTRED | QHYHRLPLS | 1.09 / 1.81 / 0.69 / 1.07 / 1.33 / 1.21 | 0/18
KLRSVTGTEKVKGNNVA | EMETREN | QQYDRLPLS | 0.60 / 0.59 / 0.36 / 0.15 / 0.35 / 0.49 | 1/18 (3.53)
KLSQSVLYEDRNKNSVA | NASTRSS | QQYHRLPLS | -0.08 / -0.08 / 0.00 / 0.06 / -0.04 / -0.09 | 1/18 (2.06)
KLSQHVEYESRLKNSVA | NASTRLK | QQYHRLPLS | 0.70 / 0.66 / 0.54 / 0.58 / 0.71 / 0.74 | 0/18
KLQSITGTEKVRGNNVA | EMETRER | QQYNRLPLA | 0.18 / 0.37 / 0.18 / -0.13 / 0.02 / 0.28 | 0/18
KSSWSVLYESHNKNSVA | NASTRMS | QQYHRLPLS | 0.47 / 0.18 / 0.42 / 0.28 / 0.27 / 0.29 | 0/18
KSSDSVLYESRNKNSVA | WASTRSS | QQYHRLPLL | n.d. / n.d. / n.d. / n.d. / n.d. / n.d. | 0/18
KSSQSVLYEERNKNSVA | GASTRES | QQYHRLPLS | 0.56 / 0.85 / 1.09 / 0.81 / 0.56 / 0.89 | 0/18
MISQLQNMGTFAINSVA | QASLRNE | QQYDRLPLI | n.d. / 1.66 / 1.05 / 1.42 / 1.16 / 2.45 | 1/18 (2.00)
KLSMSWLYESRNKNSVA | NASTRES | QQYHRLPLS | 0.36 / 0.32 / 0.23 / 0.24 / 0.29 / 0.39 | 0/18
KLEQLYDYGSRNKNSVA | QASTRES | QQYHRLPLS | 0.14 / -0.22 / -0.18 / -0.39 / -0.06 / -0.11 | 1/18 (2.88)
KSSQGVLYESRNKNSVA | DASTRMS | QQYHRLPLS | 0.49 / 0.97 / 0.70 / 0.84 / 1.79 / 1.53 | 0/18
KVSQLDNGESRNKNSVA | HASTRLS | QQYHRLPLS | 0.97 / 0.51 / 0.41 / 0.38 / 0.68 / 0.57 | 0/18
KVSQLELYESRNANNVA | NASQREN | QQYHRLPLS | 0.05 / 0.05 / 0.10 / -0.01 / -0.07 / 0.29 | 0/18
KLSQSVMFFGHAINSVA | EMETREN | QQYDRLPLS | n.d. / n.d. / n.d. / n.d. / n.d. / n.d. | 0/18
MISDLTMQGSRNKNSVA | DLSTRGS | QQYHRLPLS | 0.53 / 0.39 / 0.28 / 0.31 / 0.14 / 0.39 | 1/18 (2.70)
KLPQSWLYESRNSNSVA | HASQRME | QQYHRLPLS | 0.32 / 0.22 / -0.14 / -0.16 / 0.26 / 0.33 | 1/18 (3.23)
MSCQSVLYESGNKNSVA | WASTRES | QQYHRLWLS | n.d. / n.d. / n.d. / n.d. / n.d. / n.d. | 0/18
TLYGLSNSMSINKDSVA | EMTTRED | QQYDRLPLV | 2.68 / 3.21 / 3.37 / n.d. / n.d. / 3.27 | 0/18
KLSESFLYESRWKNSVA | DASTRLE | QQYHRLPLS | -0.04 / 0.07 / -0.41 / -0.14 / -0.12 / -0.07 | 0/18
KFQQSVLYESRNKNSVA | NASTRES | QQYHRLPLS | -0.10 / -0.17 / -0.36 / -0.32 / -0.30 / -0.11 | 0/18
KFQGMVHMGDRNKNSVA | WASTRLQ | QQYHRLPLS | n.d. / n.d. / n.d. / n.d. / 1.65 / n.d. | 0/18
KSSQSVLYESRNKNSVA | WASTRES | DQYHRLPLS | n.d. / n.d. / n.d. / n.d. / 1.56 / n.d. | 0/18
KLSSVTGHLSVEKNNVA | EMETREN | QQYDRLPLA | n.d. / n.d. / n.d. / 1.03 / 2.06 / n.d. | 0/18
KLYFNVGTMSINKQSIA | DMERRED | QQYHRLPLS | 0.22 / 0.08 / -0.11 / -0.38 / -0.33 / 0.04 | 2/18 (2.57)
TLGTSTLEESRNKNSVA | EVSLRES | QSYNRLPLS | 2.07 / 1.89 / n.d. / 2.04 / 1.80 / 3.17 | 0/18
TISQMTSLFSQSINNVA | EVSMREN | QQYDRLPLS | 0.53 / 0.28 / 0.59 / 0.46 / 0.26 / 0.13 | 2/18 (1.84)
KPAQSWLYESSNHNSVA | WASMRES | QQYGRLPLS | 1.57 / 1.36 / 1.29 / 0.93 / 1.25 / 1.61 | 0/18
MMGQVTGMGQRHRNNVA | QTSTREE | QQYDRLPLS | -0.14 / -0.04 / 0.11 / -0.16 / -0.01 / 0.01 | 0/18
KQSQSVLYESRNKNSVA | AASTRES | QQYHRLPLS | 0.14 / 0.42 / 0.66 / -0.04 / 0.68 / 0.76; 0.70 / 0.04 / 0.33 / 0.12 / 0.35 / 0.37 | 1/36 (2.42)
KSSQSVLYCSRNKNSVA | WASTRES | QSYHRLPLD | n.d. / n.d. / 2.09 / n.d. / n.d. / n.d. | 0/18

The opening 3 entries, copied out:

CDR-L1 | CDR-L2 | CDR-L3 | replicates, log10 nM | control signals
KLSQSVLYESRNKNSVA | EAQTRES | QQYHRLPLS | -0.27 / -0.31 / -0.48 / -0.59 / -0.46 / -0.32 | 0/18
TISQMSTLFSQSINNVA | EVSTREE | QQYDRLPLG | 1.25 / 0.67 / 0.63 / 0.90 / 1.25 / 1.28 | 0/18
ALSQVMDMTSRNVNSVA | DLTTREN | QQYHRLPLS | 0.62 / 0.32 / 0.58 / 0.24 / 0.37 / 0.77 | 3/18 (3.59)

Values of this round are not directly comparable with the first-round values of the same sequences.
The authors' rule: three or more of the six replicates give a measured affinity, fewer mean a poor binder.
Three control strains display no target. For all light chain designs, 4% of the pairings with them gave a signal, with a median of 2.64 and one signal in twenty below 1.59, so weak values seen in few replicates may be background. The control count says in how many pairings with the empty strains this scFv gave a signal, with their mean in brackets.
Where one sequence has several entries in the source, the replicates are listed entry by entry, parted by semicolons.
The parent sequence was in this pool as ten entries: three were never detected, three once, and four in most replicates, with averages from 0.34 to 2.37.

Values reported by Li et al. 2023, doi:10.1038/s41467-023-39022-2 (FLAb copy).